Earlier results on 1 compound are cited in patent US6403816B1, “Betulinic acid derivatives having antiangiogenic activity, processes for producing such derivatives and their use for treating tumor associated angiogenesis” (Dabur Research Foundation, priority 1997, dated 2002).

By UniProt entry, the sequences of proteins in these tests, tags left out. Residues count along the entry.
UniProt P16109, 42-830, species assumed: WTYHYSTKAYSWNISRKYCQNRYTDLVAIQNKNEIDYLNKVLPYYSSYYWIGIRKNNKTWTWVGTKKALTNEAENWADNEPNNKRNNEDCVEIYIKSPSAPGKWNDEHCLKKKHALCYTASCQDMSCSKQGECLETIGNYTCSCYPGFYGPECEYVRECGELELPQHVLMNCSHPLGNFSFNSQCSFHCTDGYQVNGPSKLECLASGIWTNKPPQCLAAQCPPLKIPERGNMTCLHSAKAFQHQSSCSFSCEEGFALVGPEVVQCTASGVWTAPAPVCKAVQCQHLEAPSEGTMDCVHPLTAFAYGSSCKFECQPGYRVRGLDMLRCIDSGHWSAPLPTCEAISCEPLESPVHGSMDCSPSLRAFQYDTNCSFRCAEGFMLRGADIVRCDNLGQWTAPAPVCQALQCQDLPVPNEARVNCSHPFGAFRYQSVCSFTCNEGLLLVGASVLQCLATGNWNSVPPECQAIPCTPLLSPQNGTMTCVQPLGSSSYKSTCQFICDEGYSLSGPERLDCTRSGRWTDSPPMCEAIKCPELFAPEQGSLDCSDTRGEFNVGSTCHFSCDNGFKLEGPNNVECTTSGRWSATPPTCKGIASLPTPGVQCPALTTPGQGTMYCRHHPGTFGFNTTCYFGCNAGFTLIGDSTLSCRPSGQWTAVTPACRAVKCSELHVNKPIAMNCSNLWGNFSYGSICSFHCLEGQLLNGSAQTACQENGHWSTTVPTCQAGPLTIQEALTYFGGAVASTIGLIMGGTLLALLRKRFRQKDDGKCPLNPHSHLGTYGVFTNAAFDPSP

The term IC50 denotes the point on the concentration scale where inhibition reaches its midpoint.

For data set [1], the target named is T1, P-Selectin (Homo sapiens, UniProt P16109). To be noted: read-out: IC50, inhibition of P-Selectin binding HL-60 cells; dose-dependent; cited from earlier work.
Data set [2] has as its target T1, P-Selectin. To be noted: read-out: IC50, inhibition of P-Selectin binding to 2,3, sLex; cited from earlier work.

Structures are written as SMILES. Read-outs that look alike come from different tables or passages of the source.

Take `C=C(C)[C@@H]1CC[C@]2(C(=O)O)CC[C@]3(C)[C@H](CC[C@@H]4[C@@]5(C)CC[C@H](O)C(C)(C)[C@@H]5CC[C@]43C)[C@@H]12` [Betulinic acid]: the IC50 is 750 µM at P-Selectin [1] and 125 µM on P-Selectin [2].
